Values of other authors as cited in patent publication US4098781A, “Polypeptides with morphine-like activity” (American Home Products Corporation, priority 1977, dated 1978).

Tested on: rats
Settings: injection in the brain ventricle; cited from earlier work

In the case of “H-Tyr-Gly-Gly-Phe-Leu-OH [leucine-enkephalin]”, the analgesia is given as “induce a profound analgesia that is fully reversible by naloxone”.
